According to BindingDB's records for doi:10.1021/acschembio.6b00560 (Vanderbilt Institute of Chemical Biology, Vanderbilt …, 2016):

molecular target: T1, Prostaglandin G/H synthase 2 (Mus musculus, UniProt Q05769); assay: COX Enzyme Inhibition Assay (Table 1)
T1 sequence (Q05769 whole entry): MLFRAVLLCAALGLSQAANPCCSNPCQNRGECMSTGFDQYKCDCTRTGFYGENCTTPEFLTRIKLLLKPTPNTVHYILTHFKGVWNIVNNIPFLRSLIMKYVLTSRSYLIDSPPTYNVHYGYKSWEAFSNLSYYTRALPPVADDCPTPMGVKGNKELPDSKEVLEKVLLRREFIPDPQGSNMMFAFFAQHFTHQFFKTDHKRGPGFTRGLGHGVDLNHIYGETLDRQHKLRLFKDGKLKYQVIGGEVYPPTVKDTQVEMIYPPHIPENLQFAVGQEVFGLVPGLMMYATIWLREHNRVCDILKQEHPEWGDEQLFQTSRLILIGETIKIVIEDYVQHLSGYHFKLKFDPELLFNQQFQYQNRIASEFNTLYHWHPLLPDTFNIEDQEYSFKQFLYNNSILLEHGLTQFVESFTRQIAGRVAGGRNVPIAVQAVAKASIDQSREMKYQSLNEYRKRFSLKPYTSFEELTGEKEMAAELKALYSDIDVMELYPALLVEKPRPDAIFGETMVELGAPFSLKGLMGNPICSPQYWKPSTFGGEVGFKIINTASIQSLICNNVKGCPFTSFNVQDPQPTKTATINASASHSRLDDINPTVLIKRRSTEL
Protocol: Each molecule was evaluated for its ability to inhibit purified mouse COX-2 or ovine COX-1 using a previously described assay. [Kalgutkar et al, J. Med. Chem., 43:2860-2870]

`COc1ccc2c(c1)c(CC(=O)NCc1ccc(CNC(=O)CCC(=O)O[C@@H]3c4cc5c(cc4[C@H](c4cc(OC)c(OC)c(OC)c4)[C@@H]4C(=O)OCC34)OCO5)cc1)c(C)n2C(=O)c1ccc(Cl)cc1` (some centres not stated) [Cytotoxic conjugates, 15] and `COc1ccc2c(c1)c(CC(=O)NCCCCOC(=O)CCC(=O)O[C@@H]1c3cc4c(cc3[C@H](c3cc(OC)c(OC)c(OC)c3)[C@@H]3C(=O)OCC13)OCO4)c(C)n2C(=O)c1ccc(Cl)cc1` (some centres not stated) [Cytotoxic conjugates, 14] are within 1.5-fold of each other in IC50: 0.18 µM for the first, 0.14 µM for the second.

First: COc1ccc2c(c1)c(CC(=O)NCCCCNC(=O)CCC(=O)OC1CCCCC1)c(C)n2C(=O)c1ccc(Cl)cc1 [Cytotoxic conjugates, 16]
Second: COc1ccc2c(c1)c(CC(=O)NCCNC(=O)CCC(=O)Nc1ccc(S(=O)(=O)Nc3nccs3)cc1)c(C)n2C(=O)c1ccc(Cl)cc1 [Cytotoxic conjugates, 8]
The IC50 of the first is 1.9-fold lower: 0.48 µM for the first, 0.92 µM for the second. The first is the more potent here.

First: COc1ccc2c(c1)c(CC(=O)NCCCCOC(=O)CCC(=O)O[C@@H](C(=O)O[C@H]1C[C@@]3(O)[C@@H](OC(=O)c4ccccc4)[C@@H]4[C@]5(OC(C)=O)CO[C@@H]5C[C@H](O)[C@@]4(C)C(=O)[C@H](OC(C)=O)C(=C1C)C3(C)C)[C@@H](NC(=O)c1ccccc1)c1ccccc1)c(C)n2C(=O)c1ccc(Cl)cc1 [Cytotoxic conjugates, 3]
Second: COc1ccc2c(c1)c(CC(=O)Nc1ccc(CNC(=O)CCC(=O)O[C@@H](C(=O)O[C@H]3C[C@@]4(O)[C@@H](OC(=O)c5ccccc5)[C@@H]5[C@]6(OC(C)=O)CO[C@@H]6C[C@H](O)[C@@]5(C)C(=O)[C@H](OC(C)=O)C(=C3C)C4(C)C)[C@@H](NC(=O)c3ccccc3)c3ccccc3)cc1)c(C)n2C(=O)c1ccc(Cl)cc1 [Cytotoxic conjugates, 4]
The IC50 of the first is 8.8-fold higher: 2.2 µM for the first, 0.25 µM for the second.

`COc1ccc2c(c1)c(CC(=O)NCCOC(=O)\C=C(C)/C=C/C=C(C)/C=C/C1=C(C)CCCC1(C)C)c(C)n2C(=O)c1ccc(Cl)cc1` [Cytotoxic conjugates, 5] was tested, and the IC50 was 0.45 µM.
